Molecules are shown by their SMILES. A value given as a limit tells only on which side of the number the result lay.

In general, IC50 refers to the concentration that inhibits the measured activity by half.

In the experiment the target is SYK-tSH2 / FCER1G p-ITAM interaction (Homo sapiens, UniProt P43405). In words: TR-FRET assay of 6xHis-SYK-tSH2 with FITC-labeled FCER1G p-ITAM peptide. Format: biochemical. The note with it: read-out: TR-FRET IC50; IC50 ± standard deviation (n = 3).
Turning to `Cn1c(=O)c2ncn(C)c2n(C)c1=O`, the IC50 was above 100 µM.

As to `Cc1n[nH]c(=O)n1C`, the IC50 is above 100 µM.

In the case of `Cn1c(=O)c2nc(S)n(C)c2n(C)c1=O`, the IC50 was determined as 2.93 µM.

The values are drawn from PMC10868801, “Characterization of covalent inhibitors that disrupt the interaction between the tandem SH2 domains of SYK and FCER1G phospho-ITAM” (PLOS ONE, 2024).
